In ChEMBL document CHEMBL1130243, “Potent and selective inhibition of neuronal nitric oxide synthase by N omega-propyl-L-arginine” (J Med Chem, 1997) one finds Ki data, which are given here for two compounds.

A word on the Ki: it is the dissociation constant of the complex between target and ligand, obtained from inhibition or displacement. Higher therefore signals a looser hold on the target.

The target in the experiment is T1, Nitric oxide synthase 3 (Bos taurus, UniProt P29473).
T1 sequence (P29473 whole entry): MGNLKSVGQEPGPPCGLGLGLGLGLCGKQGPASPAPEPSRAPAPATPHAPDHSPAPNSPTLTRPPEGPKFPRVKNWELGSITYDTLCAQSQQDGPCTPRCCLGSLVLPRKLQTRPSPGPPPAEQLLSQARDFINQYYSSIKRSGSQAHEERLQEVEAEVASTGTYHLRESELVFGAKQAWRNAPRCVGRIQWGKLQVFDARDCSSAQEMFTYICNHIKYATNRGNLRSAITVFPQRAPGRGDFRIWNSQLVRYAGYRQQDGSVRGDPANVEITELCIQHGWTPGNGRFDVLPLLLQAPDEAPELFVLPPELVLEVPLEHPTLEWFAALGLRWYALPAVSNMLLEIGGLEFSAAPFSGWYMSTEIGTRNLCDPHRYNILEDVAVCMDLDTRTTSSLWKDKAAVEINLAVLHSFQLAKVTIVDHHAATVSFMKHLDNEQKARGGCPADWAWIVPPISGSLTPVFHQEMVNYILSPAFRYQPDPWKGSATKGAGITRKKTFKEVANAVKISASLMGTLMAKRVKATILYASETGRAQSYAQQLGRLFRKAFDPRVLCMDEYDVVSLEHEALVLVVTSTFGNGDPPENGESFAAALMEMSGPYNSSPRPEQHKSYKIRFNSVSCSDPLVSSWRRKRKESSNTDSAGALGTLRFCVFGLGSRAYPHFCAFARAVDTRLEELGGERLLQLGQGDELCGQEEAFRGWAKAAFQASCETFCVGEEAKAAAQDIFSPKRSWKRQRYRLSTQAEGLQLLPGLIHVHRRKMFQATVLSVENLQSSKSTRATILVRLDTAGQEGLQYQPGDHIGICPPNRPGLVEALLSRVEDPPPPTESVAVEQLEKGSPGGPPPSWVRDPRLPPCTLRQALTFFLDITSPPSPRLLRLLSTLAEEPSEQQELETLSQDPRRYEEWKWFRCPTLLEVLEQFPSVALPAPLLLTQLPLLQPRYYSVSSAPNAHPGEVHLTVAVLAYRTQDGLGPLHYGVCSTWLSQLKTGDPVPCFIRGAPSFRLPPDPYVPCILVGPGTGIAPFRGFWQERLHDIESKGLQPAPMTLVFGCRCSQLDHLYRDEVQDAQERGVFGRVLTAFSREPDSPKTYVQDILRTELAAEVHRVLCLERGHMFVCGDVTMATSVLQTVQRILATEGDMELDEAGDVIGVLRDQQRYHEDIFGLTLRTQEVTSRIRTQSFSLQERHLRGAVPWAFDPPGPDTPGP
As to the kind of experiment: Compound was tested for binding affinity against Endothelial nitric oxide synthase.

For `CNC(=N)NCCC[C@H](N)C(=O)O` [TILARGININE], the Ki amounted to 5.9 µM. Turning to `C#CC/N=C(/N)NCCCC(N)C(=O)O` (configuration not stated), the Ki was 0.81 µM.
